Measurements: ChEMBL document CHEMBL4765458, “Synthesis and biological evaluation of organoselenium (NSAIDs-SeCN and SeCF) derivatives as potential anticancer agents” (Eur J Med Chem, 2020)

Assay: Antioxidant activity assessed as bleomycin-Fe2+-induced DNA degradation by measuring absorbance at 0.1 mg/ml after 1 hr
Type: functional
With `CC(C)Cc1ccc(C(C)C(=O)NCCC[Se]C(F)(F)F)cc1` (stereo not drawn) the deltaA was 92.7.
`CC(C)Cc1ccc(C(C)C(=O)NCCC[Se]C#N)cc1` (stereo not drawn) showed a deltaA of 88.5.
With `COc1ccc2cc([C@H](C)C(=O)NCCC[Se]C#N)ccc2c1` the deltaA was 80.6.
For `Cc1cccc(Nc2ccccc2C(=O)NCCC[Se]C(F)(F)F)c1C`, the deltaA was 68.3.
`C[C@H](C(=O)NCCC[Se]C(F)(F)F)c1cccc(C(=O)c2ccccc2)c1` gave a deltaA of 82.3.
`CC1=C(CC(=O)NCCC[Se]C#N)c2cc(F)ccc2/C1=C\c1ccc([S+](C)[O-])cc1` (stereo not drawn) showed a deltaA of 76.5.
With `CC(C(=O)NCCC[Se]C#N)c1ccc(-c2ccccc2)c(F)c1` (stereo not drawn) the deltaA was 80.4.
With `C[C@H](C(=O)NCCC[Se]C#N)c1cccc(C(=O)c2ccccc2)c1` the deltaA was 75.5.
For `COc1ccc2c(c1)c(CC(=O)NCCC[Se]C(F)(F)F)c(C)n2C(=O)c1ccc(Cl)cc1`, the deltaA was 97.6.
`CC(=O)Oc1ccccc1C(=O)NCCC[Se]C#N` gave a deltaA of 95.6.
For `CC1=C(CC(=O)NCCC[Se]C(F)(F)F)c2cc(F)ccc2/C1=C\c1ccc([S+](C)[O-])cc1` (stereo not drawn), the deltaA was 99.3.
Compound `CC(C(=O)NCCC[Se]C(F)(F)F)c1ccc(-c2ccccc2)c(F)c1` (stereo not drawn) has a deltaA of 104.
`Cc1cccc(Nc2ccccc2C(=O)NCCC[Se]C#N)c1C` showed a deltaA of 62.9.
With `CCc1cccc2c3c([nH]c12)C(CC)(CC(=O)NCCC[Se]C#N)OCC3` (stereo not drawn) the deltaA was 92.1.
In the case of `CCc1cccc2c3c([nH]c12)C(CC)(CC(=O)NCCC[Se]C(F)(F)F)OCC3` (stereo not drawn), the deltaA is reported as 111.
`COc1ccc2c(c1)c(CC(=O)NCCC[Se]C#N)c(C)n2C(=O)c1ccc(Cl)cc1` showed a deltaA of 106.
`CC(=O)Oc1ccccc1C(=O)NCCC[Se]C(F)(F)F` gave a deltaA of 130.
Work on `COc1ccc2cc([C@H](C)C(=O)NCCC[Se]C(F)(F)F)ccc2c1` yielded a deltaA of 90.7.
